Laboratory results reported in patent US6699896B1, “Oxazole-aryl-carboxylic acids useful in the treatment of insulin resistance and hyperglycemia” (Wyeth, priority 1998, dated 2004).

By UniProt entry, the sequences of proteins in these tests, tags left out. Where a name states a change or a piece, a line headed by the entry shows the natural chain unless it says otherwise.
UniProt P18031: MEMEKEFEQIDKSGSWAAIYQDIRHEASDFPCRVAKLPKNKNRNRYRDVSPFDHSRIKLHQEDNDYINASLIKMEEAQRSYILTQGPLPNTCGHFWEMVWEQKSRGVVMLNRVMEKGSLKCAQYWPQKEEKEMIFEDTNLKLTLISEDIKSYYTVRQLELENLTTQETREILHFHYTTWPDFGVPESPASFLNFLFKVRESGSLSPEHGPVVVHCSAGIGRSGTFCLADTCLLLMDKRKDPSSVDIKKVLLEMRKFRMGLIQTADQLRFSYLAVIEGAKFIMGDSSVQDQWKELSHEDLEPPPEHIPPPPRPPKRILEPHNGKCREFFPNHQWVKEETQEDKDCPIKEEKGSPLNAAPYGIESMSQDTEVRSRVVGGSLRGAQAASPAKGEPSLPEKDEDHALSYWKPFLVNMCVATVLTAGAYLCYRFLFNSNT

Key:
[1] = tested on: rat hepatic microsomal PTPases; assay: Inhibition of tri-phosphorylated insulin receptor dodecaphosphopeptide dephosphorylation by rat hepatic PTPases; details: PTPase activity, compound at 50 μM, rat liver microsomes
[2] = biological target: Human recombinant PTP1B (Homo sapiens, UniProt P18031); assay: Inhibition of tri-phosphorylated insulin receptor dodecaphosphopeptide dephosphorylation by hPTP1B; assay type: biochemical

| Substance | % Change from Control [1] [%] | IC50 ([2]; recombinant PTP1B, malachite green phosphate detection) [µM] | percent of phosphatase control (change) at single concentration ([2]; compound at 2.5 uM) |
| --- | --- | --- | --- |
| Phenylarsine oxide | −57 | 39.7 | – |
| {3′-5-Methyl-2-(4-trifluoromethyl-phenyl)-oxazol-4-yl]-biphenyl-4-yloxy}-acetic Acid | −30 | – | −47 (2.5 uM) % |
